What was measured:
[1] = cited from earlier work
[2] = target: T1, LIMK1 (NanoLuc LIMK1 kinase fusion) (Homo sapiens, UniProt P53667); type: cell-based; settings: HEK293 cells, 2 h; mean ± SEM
T1 construct: host or cells: HEK293
Procedure: (§1) HEK293 cells were resuspended in growth media following routine trypsinization, neutralization, and sedimentation techniques. Cell density was adjusted to 1 ×10^5 cells/mL for each transfection in a total of 25 mL media. The transfection mix was added directly to the cells and mixed gently by inversion. The cells were then plated into T-75 tissue culture flasks and incubated for 20 h.
(§2) Kit components were purchased from Promega (Hampshire, U.K.). […] NanoBRET Tracer #10 (27.5 μL) was diluted in 192.5 μL of DMSO for use as a positive control, which was further diluted with 880 μL of tracer dilution buffer. For negative control, 20 μL of DMSO was added to 80 μL of tracer dilution buffer. LIMK1/2-transfected HEK293 cells were trypsinized, centrifuged, and resuspended in 10 mL of Opti-MEM. Extracellular NanoLuc inhibitor was added at 1:10,000 dilution to the cells, after which 85 μL of cells/well were plated into flat-bottomed, white, 96-well plates. For positive control wells, 5 μL of NanoBRET Tracer #10 was added to wells without compound. For negative controls, the DMSO/tracer dilution buffer solution was added to wells without compound. For test compounds, 10 μL of diluted compounds from the intermediate plate were added in duplicate or DMSO (for control wells) at a final concentration of 0.5% DMSO in Opti-MEM. Plates were incubated at 37 °C and 5% CO2 for 2 h. […]

By UniProt entry, the sequences of proteins in these tests, tags left out. Where a name states a change or a piece, a line headed by the entry shows the natural chain unless it says otherwise. Residues count along the entry.
UniProt P53667, 330-637: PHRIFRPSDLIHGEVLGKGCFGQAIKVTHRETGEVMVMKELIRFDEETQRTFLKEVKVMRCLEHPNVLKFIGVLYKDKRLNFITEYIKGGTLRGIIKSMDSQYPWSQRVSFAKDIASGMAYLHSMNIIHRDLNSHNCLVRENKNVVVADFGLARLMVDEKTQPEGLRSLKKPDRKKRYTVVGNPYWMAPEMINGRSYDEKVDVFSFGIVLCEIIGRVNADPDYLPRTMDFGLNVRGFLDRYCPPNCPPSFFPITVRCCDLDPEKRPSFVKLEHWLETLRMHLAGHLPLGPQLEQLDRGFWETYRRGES
UniProt P53671: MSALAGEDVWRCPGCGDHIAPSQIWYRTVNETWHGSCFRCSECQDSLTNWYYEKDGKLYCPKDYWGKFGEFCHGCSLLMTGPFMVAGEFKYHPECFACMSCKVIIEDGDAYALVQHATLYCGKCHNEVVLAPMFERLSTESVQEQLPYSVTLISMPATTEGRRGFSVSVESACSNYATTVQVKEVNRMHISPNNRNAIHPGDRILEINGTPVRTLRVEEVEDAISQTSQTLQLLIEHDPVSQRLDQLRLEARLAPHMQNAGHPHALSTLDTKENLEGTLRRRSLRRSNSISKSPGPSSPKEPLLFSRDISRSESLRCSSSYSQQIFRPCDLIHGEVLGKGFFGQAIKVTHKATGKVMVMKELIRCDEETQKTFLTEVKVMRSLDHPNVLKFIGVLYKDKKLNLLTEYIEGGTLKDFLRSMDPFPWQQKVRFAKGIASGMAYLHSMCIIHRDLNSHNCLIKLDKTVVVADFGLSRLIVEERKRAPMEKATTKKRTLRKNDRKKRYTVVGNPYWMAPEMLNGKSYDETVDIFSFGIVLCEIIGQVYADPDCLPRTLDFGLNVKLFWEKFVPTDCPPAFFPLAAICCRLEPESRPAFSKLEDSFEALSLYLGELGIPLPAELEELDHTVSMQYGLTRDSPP

[3] = target: T2, LIMK2 (NanoLuc LIMK2 kinase fusion) (Homo sapiens, UniProt P53671); type: cell-based; settings: HEK293 cells, 2 h; mean ± SEM
T2 construct: host or cells: HEK293
Procedure: as §1, §2

[4] = target: LIMK1 (LIMK1_330–637, kinase catalytic domain) (Homo sapiens, UniProt P53667)
[5] = target: PAK pLIMK1 (PAK-phosphorylated LIMK1) (Homo sapiens, UniProt P53667); experiment: RapidFire mass spectrometry kinase assay, PAK-phosphorylated LIMK1; settings: 5 nM LIMK1 + 0.4 nM PAK1 kinase domain; mean ± SEM

SMILES | aqueous stability [1] | NanoBRET pIC50 LIMK1 [2] | NanoBRET pIC50 LIMK2 [3] | RapidFire pIC50 LIMK1 [4] | RapidFire pIC50 PAK pLIMK1 [5]
Cc1c[nH]c2ncnc(N3CCN(C(=O)Nc4cccc(OC(=O)N(C)C)c4)[C@@H](C)C3)c12 [Compound 6] | aqueous instability | – | – | – | –
Cc1c[nH]c2ncnc(-c3ccc(NC(=O)N(CCO)c4ccccc4)cc3)c12 [Compound 8] | – | 6.13 ± 0.15 | 6.26 ± 0.09 | 6.43 ± 0.36 | 5.69 ± 0.19

From PMC9619402 (Journal of Medicinal Chemistry, 2022)
